The record followed here is BindingDB's records for doi:10.1021/jm801343r (University of Washington At Seattle, 2009).

Molecules are shown by their SMILES.

One may read the IC50 as the point on the concentration scale where inhibition reaches its midpoint. A high value points to weaker potency in that assay.

In this assay the target is T1, Dihydroorotate dehydrogenase (quinone), mitochondrial [100-517] (Plasmodium berghei (strain Anka), UniProt A0A509AEH5).
T1 construct: 100-517
T1 sequence (A0A509AEH5 whole entry): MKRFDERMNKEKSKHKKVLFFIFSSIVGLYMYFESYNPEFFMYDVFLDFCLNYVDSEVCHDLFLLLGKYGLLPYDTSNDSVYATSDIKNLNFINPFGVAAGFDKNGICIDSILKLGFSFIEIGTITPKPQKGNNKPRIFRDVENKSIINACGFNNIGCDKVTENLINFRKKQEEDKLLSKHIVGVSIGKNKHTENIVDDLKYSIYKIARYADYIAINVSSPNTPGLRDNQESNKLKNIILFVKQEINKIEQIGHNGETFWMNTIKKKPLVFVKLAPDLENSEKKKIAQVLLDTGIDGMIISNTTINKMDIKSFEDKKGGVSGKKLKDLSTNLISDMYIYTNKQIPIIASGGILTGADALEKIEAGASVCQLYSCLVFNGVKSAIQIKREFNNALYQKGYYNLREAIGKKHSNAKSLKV
Briefly: DHODH Inhibition Assay. As to the method:
The assays were carried out by using a colorimetric DCIP method, which uses the colorimetric reagent 2, 6-dichlorophenolindophenol as the final electron acceptor. DCIP reduction is stoichiometrically equivalent to oxidation of dihydroorotate. Changes in absorbance were quantified on a plate reader and data were analyzed to measure the reduction of DCIP as a decrease in absorbance at 600 nm.

`Cc1cc(Nc2ccc3ccccc3c2)n2ncnc2n1` [JMC521864 Compund DSM1]: half-maximal inhibition (IC50) required 230 nM.
